## Permeability data for macrocyclic peptides

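The data file gives no further conditions (lipid, pH, time, direction or concentration), and values from different papers need not be comparable. Other peptides of the study may be missing here. Peptides that the database sets to -10, its floor, are left out.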

PAMPA is the parallel artificial membrane permeability assay, which has no cells and reads passive diffusion. Permeability is given as log10 of P in cm/s; higher (less negative) is more permeable.

{"smiles": "CCCN1CC(=O)N(C)[C@@H](CC(C)C)C(=O)N(C)[C@@H](CC(C)C)C(=O)N2CCC[C@H]2C(=O)N(Cc2ccccc2)CC(=O)N[C@@H](Cc2ccccc2)C(=O)N2CCC[C@@H]2C1=O", "PAMPA (log10 cm/s)": "-5.61"}
{"smiles": "CC(C)C[C@@H]1NC(=O)[C@@H](C)NC(=O)[C@H](Cc2ccccc2)NC(=O)[C@@H](CC(C)C)NC(=O)[C@H]2CCCN2C(=O)[C@@H](CC(C)C)N(C)C1=O", "PAMPA (log10 cm/s)": "-5.93"}
{"smiles": "CC(C)C[C@@H]1NC(=O)[C@@H]2CCCN2C(=O)CN(Cc2ccccc2)C(=O)[C@H](CC(C)C)N(C)C(=O)C[C@H](Cc2ccccc2)NC(=O)[C@@H]2CCCN2C(=O)[C@H](Cc2ccccc2)NC1=O", "PAMPA (log10 cm/s)": "-5.73"}
{"smiles": "CC(C)C[C@@H]1C(=O)N[C@@H](Cc2ccccc2)C(=O)N2CCC[C@@H]2C(=O)N[C@@H](C)C(=O)N(C)[C@@H](CC(C)C)C(=O)N[C@@H](Cc2ccccc2)CC(=O)N2CCC[C@H]2C(=O)N1C", "PAMPA (log10 cm/s)": "-5.65"}
{"smiles": "CC(C)C[C@@H]1NC(=O)C[C@H](Cc2ccccc2)NC(=O)[C@@H]2CCCN2C(=O)[C@H](Cc2ccccc2)NC(=O)[C@H](CC(C)C)N(C)C(=O)[C@@H]2CCCN2C(=O)C[C@H](Cc2ccccc2)NC1=O", "PAMPA (log10 cm/s)": "-5.52"}
{"smiles": "CC(C)C[C@H]1NC(=O)[C@@H]2CCCN2C(=O)CN(Cc2ccccc2)C(=O)[C@@H](CC(C)C)NC(=O)[C@H](C)NC(=O)[C@H]2CCCN2C(=O)[C@H](Cc2ccccc2)NC1=O", "PAMPA (log10 cm/s)": "-6.27"}
{"smiles": "CC(C)C[C@@H]1NC(=O)C[C@H](Cc2ccccc2)NC(=O)[C@H]2CCCN2C(=O)[C@H](Cc2ccccc2)NC(=O)[C@@H](CC(C)C)N(C)C(=O)[C@@H]2CCCN2C(=O)[C@H](CC(C)C)NC1=O", "PAMPA (log10 cm/s)": "-5.85"}
{"smiles": "CC(C)C[C@@H]1NC(=O)[C@@H]2CCCN2C(=O)C[C@H](Cc2ccccc2)NC(=O)CN(Cc2ccccc2)C(=O)C[C@H](Cc2ccccc2)NC(=O)[C@H]2CCCN2C(=O)[C@H](Cc2ccccc2)NC1=O", "PAMPA (log10 cm/s)": "-6.29"}
{"smiles": "CC(C)C[C@@H]1NC(=O)[C@@H]2CCCN2C(=O)[C@H](CC(C)C)N(C)C(=O)[C@@H](CC(C)C)N(C)C(=O)[C@H](C)N(C)C(=O)[C@@H]2CCCN2C(=O)[C@H](Cc2ccccc2)NC1=O", "PAMPA (log10 cm/s)": "-6.41"}
{"smiles": "CCCN1CC(=O)N(Cc2ccccc2)CC(=O)N(C)[C@H](CC(C)C)C(=O)N2CCC[C@@H]2C(=O)N(C)[C@H](CC(C)C)C(=O)N[C@@H](Cc2ccccc2)C(=O)N2CCC[C@@H]2C1=O", "PAMPA (log10 cm/s)": "-5.91"}
{"smiles": "CC(C)C[C@@H]1C(=O)N[C@H](CC(C)C)C(=O)N2CCC[C@@H]2C(=O)N(C)[C@@H](CC(C)C)C(=O)N[C@@H](Cc2ccccc2)C(=O)N2CCC[C@@H]2C(=O)N(C)[C@@H](C)C(=O)N1C", "PAMPA (log10 cm/s)": "-5.52"}
{"smiles": "CC(C)C[C@@H]1C(=O)N[C@@H](Cc2ccccc2)CC(=O)N2CCC[C@@H]2C(=O)N(C)[C@@H](CC(C)C)C(=O)N[C@@H](Cc2ccccc2)C(=O)N2CCC[C@@H]2C(=O)N[C@@H](C)C(=O)N1C", "PAMPA (log10 cm/s)": "-5.79"}
{"smiles": "CC(C)C[C@@H]1NC(=O)[C@@H](CC(C)C)N(C)C(=O)C[C@H](Cc2ccccc2)NC(=O)[C@H](Cc2ccccc2)NC(=O)[C@@H](CC(C)C)NC(=O)[C@H]2CCCN2C1=O", "PAMPA (log10 cm/s)": "-5.17"}
{"smiles": "CCCN1CC(=O)N(C)[C@@H](CC(C)C)C(=O)N(C)[C@H](CC(C)C)C(=O)N2CCC[C@@H]2C(=O)N[C@@H](CC(C)C)C(=O)N[C@@H](Cc2ccccc2)C(=O)N2CCC[C@@H]2C1=O", "PAMPA (log10 cm/s)": "-5.90"}
{"smiles": "CC(C)C[C@H]1NC(=O)[C@H](CC(C)C)N(C)C(=O)C[C@H](Cc2ccccc2)NC(=O)[C@H](Cc2ccccc2)NC(=O)CN(Cc2ccccc2)C(=O)[C@H]2CCCN2C1=O", "PAMPA (log10 cm/s)": "-6.19"}
{"smiles": "CCCN1CC(=O)N(C)[C@@H](CC(C)C)C(=O)N(C)[C@H](CC(C)C)C(=O)N2CCC[C@H]2C(=O)N[C@@H](CC(C)C)C(=O)N[C@@H](Cc2ccccc2)C(=O)N2CCC[C@H]2C1=O", "PAMPA (log10 cm/s)": "-5.69"}
{"smiles": "CC(C)C[C@@H]1NC(=O)[C@H](C)N(C)C(=O)[C@H]2CCCN2C(=O)[C@H](Cc2ccccc2)NC(=O)[C@H](CC(C)C)N(C)C(=O)[C@H]2CCCN2C(=O)[C@@H](CC(C)C)N(C)C1=O", "PAMPA (log10 cm/s)": "-5.67"}
{"smiles": "CCCN1CC(=O)N[C@H](CC(C)C)C(=O)N(Cc2ccccc2)CC(=O)N2CCC[C@@H]2C(=O)N[C@H](CC(C)C)C(=O)N[C@@H](Cc2ccccc2)C(=O)N2CCC[C@H]2C1=O", "PAMPA (log10 cm/s)": "-5.88"}
{"smiles": "CCCN1CC(=O)N(C)[C@H](CC(C)C)C(=O)N(C)[C@@H](CC(C)C)C(=O)N2CCC[C@@H]2C(=O)N[C@H](CC(C)C)C(=O)N[C@@H](Cc2ccccc2)C(=O)N2CCC[C@H]2C1=O", "PAMPA (log10 cm/s)": "-5.29"}
{"smiles": "CC(C)C[C@@H]1C(=O)N[C@@H](Cc2ccccc2)CC(=O)N2CCC[C@H]2C(=O)N(C)[C@H](CC(C)C)C(=O)N[C@@H](Cc2ccccc2)C(=O)N2CCC[C@@H]2C(=O)N[C@H](C)C(=O)N1C", "PAMPA (log10 cm/s)": "-5.64"}
{"smiles": "CC(C)C[C@@H]1NC(=O)[C@@H]2CCCN2C(=O)C[C@H](Cc2ccccc2)NC(=O)[C@@H](CC(C)C)NC(=O)[C@@H](C)NC(=O)[C@H]2CCCN2C(=O)[C@H](Cc2ccccc2)NC1=O", "PAMPA (log10 cm/s)": "-6.99"}

Excerpt, the final 3 entries:

{"smiles": "CCCN1CC(=O)N(C)[C@H](CC(C)C)C(=O)N(C)[C@@H](CC(C)C)C(=O)N2CCC[C@@H]2C(=O)N[C@H](CC(C)C)C(=O)N[C@@H](Cc2ccccc2)C(=O)N2CCC[C@H]2C1=O", "PAMPA (log10 cm/s)": "-5.29"}
{"smiles": "CC(C)C[C@@H]1C(=O)N[C@@H](Cc2ccccc2)CC(=O)N2CCC[C@H]2C(=O)N(C)[C@H](CC(C)C)C(=O)N[C@@H](Cc2ccccc2)C(=O)N2CCC[C@@H]2C(=O)N[C@H](C)C(=O)N1C", "PAMPA (log10 cm/s)": "-5.64"}
{"smiles": "CC(C)C[C@@H]1NC(=O)[C@@H]2CCCN2C(=O)C[C@H](Cc2ccccc2)NC(=O)[C@@H](CC(C)C)NC(=O)[C@@H](C)NC(=O)[C@H]2CCCN2C(=O)[C@H](Cc2ccccc2)NC1=O", "PAMPA (log10 cm/s)": "-6.99"}

Source: CycPeptMPDB (Li et al. 2023), which took these values from Townsend et al. 2020, doi:10.26434/chemrxiv.13335941.v1.